Target: Melanocyte-stimulating hormone receptor (Mus musculus, UniProt Q01727)
Experiment: Functional activity at the mouse melanocortin 1 receptor
How it was run: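 HEK-293 cells stably expressing the mouse receptor (calcium phosphate transfection, G418 1 mg/mL), transfected with CRE/β-galactosidase reporter. Lysates read at OD405 with ONPG at 37 °C, normalized to protein and forskolin (10^-4 M) response. EC50 from curve fit, at least three independent experiments.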

By UniProt entry, the sequences of proteins in these tests, tags left out. Where a name states a change or a piece, a line headed by the entry shows the natural chain unless it says otherwise.
UniProt Q01727: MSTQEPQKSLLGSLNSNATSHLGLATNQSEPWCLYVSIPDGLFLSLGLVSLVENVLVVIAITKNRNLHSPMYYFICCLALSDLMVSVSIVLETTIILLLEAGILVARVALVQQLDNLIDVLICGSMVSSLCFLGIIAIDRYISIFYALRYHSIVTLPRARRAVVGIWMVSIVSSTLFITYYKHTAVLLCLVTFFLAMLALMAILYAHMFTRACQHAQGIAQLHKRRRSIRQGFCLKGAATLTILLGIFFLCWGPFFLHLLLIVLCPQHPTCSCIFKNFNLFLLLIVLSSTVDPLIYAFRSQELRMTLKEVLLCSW

EC50	Structure (SMILES)
0.0256 µM	CC(=O)N[C@@H](Cc1cnc[nH]1)C(=O)N[C@H](Cc1ccccc1)C(=O)N[C@@H](CCCN=C(N)N)C(=O)N[C@@H](Cc1c[nH]c2ccccc12)C(N)=O
14.5 µM	CC(=O)N[C@@H](Cc1c[nH]cn1)C(=O)N[C@@H](Cc1ccccc1)C(=O)N[C@@H](CCCN=C(N)N)C(=O)N[C@H](Cc1c[nH]c2ccccc12)C(N)=O
0.0972 µM	CC(=O)N[C@@H](Cc1cnc[nH]1)C(=O)N[C@H](Cc1ccccc1)C(=O)N[C@@H](CCCNC(=N)N)C(=O)N[C@H](Cc1c[nH]c2ccccc12)C(N)=O
7.69 µM	CC(=O)N[C@@H](Cc1c[nH]cn1)C(=O)N[C@@H](Cc1ccccc1)C(=O)N[C@@H](CCCN=C(N)N)C(=O)N[C@@H](Cc1c[nH]c2ccccc12)C(N)=O

Reference: ChEMBL document CHEMBL1134521, “Characterization of melanocortin NDP-MSH agonist peptide fragments at the mouse central and peripheral melanocortin receptors” (J Med Chem, 2001)
